# Experimental data from patent US20050003431A1, “Monovalent, multivalent, and multimeric MHC binding domain fusion proteins and conjugates, and uses therefor” (priority 1996, published 2005).
# B1: multivalent DR2/MBP(85-99) peptide complexes (conjugate)
# MHC II alpha: [not shown - about 200 residues]VDGGGGGLTDTLQAETDQLEDEKSALQTEIANLLKEKEKLEFILAAHLGGIFEAMKMELRD
# MHC II beta: EGDTRPRFLWQPKRECHFFNGTERVRFLDRYFYNQEESVRFDSDVGEFRAVTELGRPDAEYWNSQKDILEQARAAVDTYCRHNYGVVESFTVQRRVQPKVTVYPSKTQPLQHHNLLVCSVSGFYPGSIEVRWFLNGQEEKAGMVSTGLIQNGDWTFQTLVMLETVPRSGEVYTCQVEHPSVTSPLTVEWRARSESAQSKVDGGGGGRIARLEEKVKTLKAQNSELASTANMLREQVAQLKQKVMNH
# peptide: PGSRPHLIRLFSRDA
# Experiments:
# [1] = system: control T cell clones (HY.1B11, Go.P3, Kw-TTI); assay: FACS staining of control T cell clones with DR2/peptide complexes on streptavidin fluorescent microbeads; type: cell-based, human
# Excerpt: (§1) DR2-biotin tag molecules were used to generate highly multimeric MHC binding domain conjugates for the specific staining of antigen specific T cells. […] Polystyrene beads similar in size to viral particles (40 nm) were selected based on their ability to remain soluble; these beads pellet in an ultracentrifuge but not under the low G-forces used to wash cells. Staining of antigen specific T cells was examined by FACS. For FACS staining, biotinylated mAbs specific for CD4 (positive control) and a murine MHC class II (10-2.16) (negative control) were used as controls. Approximately 10^6 T cells were used for each assay. T cells were pelleted and resuspended in cold PBS, 0.1% sodium azide.
# [2] = system: DR2/MBP(85-99) specific T cell clones; assay: FACS staining of T cells with DR2/peptide complexes on streptavidin fluorescent microbeads; type: cell-based, human; settings: 40 nm streptavidin polystyrene beads, approximately 10^6 T cells
# Excerpt: as §1
molecule,measurement,setting,value
B1,FACS staining of control T cell clones,[1],No staining was observed
same,FACS staining of DR2/MBP(85-99) specific T cell clones,[2],Staining was observed
same,staining intensity compared with the CD4 mAb,[2],similar
